# ChEMBL document CHEMBL5030510, “Designed β-Hairpins Inhibit LDH5 Oligomerization and Enzymatic Activity” (J Med Chem, 2021)
# pIC50: −log10 of the molar value.
# Target: L-lactate dehydrogenase A chain (Homo sapiens, UniProt P00338)
# Test: Inhibition of recombinant full length N-terminal His-tagged human LDHA expressed in Escherichia coli using pyruvate as substrate and NADH as cofactor incubated for 2 hrs by fluorescence assay
# Procedure, shortened: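 Reassociation activity assay: 900 nM LDHA stock in phosphate pH 7.4/EDTA/0.05% BSA, acidified 2 min with glycine pH 2.5/BSA. Peptide added in 0.25 M phosphate pH 7.6 and incubated 2 h at RT. Aliquot diluted, then pyruvate (3 mM final) and NADH (0.3 mM final) added. IC50 from dose-response fit.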
structure (smiles),measurement,value
CC(C)C[C@@H]1NC(=O)[C@H](CCCNC(=N)N)NC(=O)[C@H](CCCNC(=N)N)NC(=O)[C@@H](NC(=O)[C@@H]2CCC(=O)N2)CSSC[C@@H](C(=O)N[C@@H](CCCNC(=N)N)C(=O)NCC(=O)N[C@@H](CCCNC(=N)N)C(=O)O)NC(=O)[C@H](Cc2ccc(O)cc2)NC(=O)[C@H]([C@@H](C)O)NC(=O)[C@H](C(C)C)NC(=O)[C@@H]2CSSC[C@H](NC1=O)C(=O)N[C@@H](Cc1ccc(O)cc1)C(=O)N[C@@H](CCCCN)C(=O)N[C@@H](CCC(N)=O)C(=O)N[C@@H](CCCNC(=N)N)C(=O)N2,pIC50,< 4.40
